This note sets out measurements from patent US7776913B2, “Carnitines for treating or preventing disorders caused by andropause” (Sigma-Tau Industrie Farmaceutiche Riunite S.p.A., priority 2002, dated 2010).

The test system of the assay is Patients aged over 60 years with lowered blood concentrations of free and total testosterone. Description: Penile dynamic colour Doppler ultrasonography (PSV, EDV, RI of cavernous arteries). The class given is in vivo, human. Particulars: mean ± SD; for Right cavernous artery RI: values subjected to angular transformation; for Left cavernous artery RI: values submitted to angular transformation. An excerpt: Reported here below is a clinical trial conducted in order to evaluate the activity of the combination according to the association in the treatment of the symptoms of male ageing.
Patients aged over 60 years with lowered blood concentrations of free and total testosterone (The Aging Male 4: 151-162, 2001) and complaining of symptoms figuring in the working definition of andropause proposed by the International Society for the Study of the Aging Male (I.S.S.A.M.) (The Aging Male 4: 151-162, 2001): reduced libido or sex drive and erectile function, depressed mood, difficulty concentrating, irritability and fatigue.
The above-mentioned compounds were presented to the patients in anonymous containers and administered for 6 months.
Medical history-taking and physical examinations were done for all patients. The following data were also collected prior to the start of treatment, after 1, 3 and 6 months of treatment: • 1. Total blood prostate-specific antigen (PSA) (ng/ml) as measured with the automatic test and monoclonal antibodies [Rigatti P., Scattoni V.: PSA: Antigene prostatico specifico. Edizioni Medico Scientifiche (EDIMES) Pavia, 1997]. • 2. Prostate volume (cm^3) as measured by suprapubic ultrasonography and calculated by means of the three diameters rule [Rigatti P. Scattoni V.: PSA: Antigene prostatico specifico. Edizioni Medico Scientifiche (EDIMES) Pavia, 1997]. • 3. Peak systolic volume (PSV) (cm/sec), end-diastolic velocity (EDV) (cm/sec), and Resistance Index (RI) (%) of the penile arteries (right and left cavernous e dorsal) as measured by means of penile basal and dynamic colour Doppler ultrasonography. RI was calculated as follows: (PSV-EDV/EDV)×100 (Urology 1997: 49: 822-830). • 4. Duration of full erections (in minutes) in the course of a recording period of three nights performed with Rigiscan. […] Free and total blood testosterone, LH and prolactin levels (The Aging Male 4: 151-162, 2001). • 6. Sexual function was checked by means of semistructured interviews and administration of the International Index of Erectile Function (IIEF-15) (Urology 1997: 49: 822-830). A score was calculated for each patient. • 7. Depression was quantified by means of the Hamilton Depression Scale questionnaire (DMS III) (Cancer 94: 2481-2489, 2002). A score was calculated for each patient. • 8. The subjective sensation of fatigue was calculated using the fatigue scale (Lison L.: Statistica applicata alla biologia sperimentale. Milano: Casa Editrice Ambrosiana, 1972). A score was calculated for each patient. • 9. Side effects.
Blood concentrations of PSA, free and total testosterone, prolactin LH, prostate volume, PSV, EDV, RI, full erection duration, IIEF-15, DMS III, and fatigue scale scores were compared between and within groups by means of factorial analysis of variance for randomised blocks (1 patient=1 block). Comparison of the mean values was done on the raw data with the exclusion of RI which used data subjected to angular transformation (sin^−1 √P/100) for the comparisons.

As to testosterone undecaonate, the “Right cavernous artery RI” value (3 months of therapy) is on record as 60.9 ± 8.4%, the “Right cavernous artery RI” value (6 months of therapy) is recorded as 61.1 ± 7.9% and the “Right cavernous artery RI” value (before therapy) was determined as 64.6 ± 8.4%. In addition, the “Left cavernous artery RI” value (3 months of therapy) is 61.5 ± 7.8%, the “Left cavernous artery RI” value (6 months of therapy) is given as 62.1 ± 7.0% and the “Left cavernous artery RI” value (before therapy) is 61.5 ± 8.3%.
